Experimental findings from PubChem BioAssay AID1875 (Broad Institute, 2009) are described below.

Some of the results follow. Active and inactive are the calls of the source.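 Rule for the calls: active = lowest replicate activity score at least 50, where 100 means six control SD above control mean; inconclusive = lowest score under 50 but half or more replicates reach 50; inactive = the rest.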

The assay in a line: polyadenylation inhibitors in yeast reporter cells, primary screen, luminescence, S. cerevisiae (AID 1875).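 Note: yeast exposed to compound for 9 h at 30 °C; higher score means more reporter readthrough which indicates perturbed polyadenylation.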 The note with it: S. cerevisiae SKY197-pL101 polyadenylation reporter, beta-gal luminescence; at 12 µM; stronger effect = higher value; efflux-impaired pdr1/pdr3 knockout yeast; score 100 = 6 SD above DMSO.
Consider `CCOP(=O)(Nc1ccc(C)cn1)OCC`, for which the activity score was inactive: -12.6%. With `CN(CCCl)Cc1cc(Cl)c(NC2=NCCN2)c(Cl)c1`, the activity score is inactive: 0.167%.

As for `CCC1=CC2Cc3nc4ccc(Cl)cc4c(N)c3C(C1)C2` (stereo not given), the activity score was inactive: 8.12%.

Regarding `O=P1(Nc2ccccn2)COc2ccccc2OC1`, the activity score is inactive: 4.09%.

Consider `O=[N+]([O-])c1cc([N+](=O)[O-])c(-n2nnc3ccccc32)c([N+](=O)[O-])c1`, for which the activity score was inactive: -5.99%.

As to `CCOP(=O)(NC(=NC(C)c1ccccc1)NC(C)c1ccccc1)OCC` (stereo not given), the activity score was inactive: -9.54%. For `Clc1n[nH]nc1-c1nn[nH][15n]1` the value was inactive: 12.1%. Under `COc1ccccc1CNC(=O)COC(=O)C(O)(c1ccccc1)c1ccccc1` stands inactive: -6.96%; under `O=[N+]([O-])c1cc([N+](=O)[O-])c(-c2cnn(-c3ccccc3)c2)c([N+](=O)[O-])c1`, inactive: -46.2%. For `O=[As](O)(c1ccccc1Br)c1ccccc1Br` the value was inactive: 1.89%. Regarding `CC1(CBr)Cn2c(nc3ccccc3c2=O)S1` (stereo not given), the activity score is inactive: -4.82%. `CN(C(=O)Cc1ccc(Cl)c(Cl)c1)[C@@H]1CCCC[C@H]1N1CCCC1`: the activity score is inactive: -5.47%.

Consider `CC(C)/C=N\N=C(\N)N[N+](=O)[O-]`, for which the activity score is inactive: 10.7%. Turning to `COc1cc(C2NCCC3(OCCO3)C2(C)C)cc(OC)c1OC.O=[N+]([O-])c1cc([N+](=O)[O-])c(O)c([N+](=O)[O-])c1` (stereo not given), the activity score was inactive: 2.61%. `Cc1nn(-c2ccccc2)c2c1P(=O)(N1CCOCC1)N(C)C(c1ccccc1)=N2` (stereo not given): the activity score is inactive: -4.3%.

For the compound `Cc1ccc(C(=O)OC2CN3CCC2CC3)cc1` (stereo not given), the activity score is inactive: 12.3%. For `CC1CCC(C(C)C)C(OP(=O)(Nc2ccccn2)c2ccccc2)C1` (stereo not given) the value was inactive: -0.394%; for `O=C(/C=C/c1ccccc1)OC1CN2CCC1CC2` (stereo not given), inactive: 2.54%; for `CN(C)C1(CNC(=O)c2ccc(S(C)(=O)=O)cc2)CCCCC1`, inactive: -4.89%. For `O=[N+]([O-])c1cc([N+](=O)[O-])c(Nc2nnnn2CCO)c([N+](=O)[O-])c1` the value was inactive: 3.45%; for `CCOC(=O)C(CC)C1=NC(C)(C)Cc2ccccc21.O=[N+]([O-])c1cc([N+](=O)[O-])c(O)c([N+](=O)[O-])c1` (stereo not given), inactive: -23.3%.

As for `CN1CCCCC1COC(=O)C1(O)c2ccccc2CCc2ccccc21` (stereo not given), the activity score is inactive: 3.07%. Under `COc1ccccc1OP(C)(=O)Nc1c(C)cccc1C` (stereo not given) stands inactive: -1.49%. With `O=P1(Nc2ncccn2)COc2ccccc2OC1`, the activity score was inactive: 5.53%. For `Cc1ccc(OCC(=O)OC2CN3CCC2CC3)cc1` (stereo not given) the value was inactive: 3.93%. For `O=[As](O)(c1cccs1)c1cccs1` the value was inactive: -15.2%; for `CCCOc1ccc(NP(C)(=O)Oc2ccc(Cl)cc2)cc1` (stereo not given), inactive: 4.6%; for `Nc1cccc([As](=O)(O)c2ccccc2)c1`, inactive: -0.576%. For `CP(=O)(Nc1ccc(SC(F)(F)F)cc1)Oc1ccccc1` (stereo not given) the value was inactive: 0.254%; for `CS(=O)(=O)c1cc([N+](=O)[O-])c2no[n+]([O-])c2c1`, inactive: 1.92%. With `O=C(O)c1cccc(Nc2c([N+](=O)[O-])cc([N+](=O)[O-])cc2[N+](=O)[O-])c1`, the activity score is inactive: -4.84%. With `CCOP1(=S)c2c(C)nn(CCC#N)c2N=C(c2ccccc2F)N1C` (stereo not given), the activity score was inactive: 1.88%. Under `O=P(Nc1nccs1)(Oc1ccccc1)Oc1ccccc1` stands inactive: 12.1%; under `O=P(Nc1nccs1)(c1ccccc1)c1nc2ccccc2s1` (stereo not given), inactive: -4.67%; under `O=C(O)COc1ccc([As](=O)(O)O)cc1[N+](=O)[O-]`, inactive: 16.6%.

Take `Nc1ccccc1[As](=O)(O)c1ccccc1`: the activity score was inactive: 4.32%. Consider `NC(=O)Nc1ccc([As](=O)(O)O)cc1`, for which the activity score was inactive: 12.9%. As to `O=[N+]([O-])c1ccc2c(c1)nnn2O`, the activity score was inactive: -14.2%. For `CN(C)C(=O)c1cc([N+](=O)[O-])cc2c1-c1c(cc([N+](=O)[O-])cc1[N+](=O)[O-])C2=O` the value was inactive: -22.4%; for `CC1=NCCc2c1[nH]c1ccccc21.O=[N+]([O-])c1cc([N+](=O)[O-])c(O)c([N+](=O)[O-])c1`, inactive: 10.4%; for `CN(C(=O)Cc1ccc(Cl)c(Cl)c1)[C@H]1CC[C@@]2(CCCO2)C[C@@H]1N1CCCC1`, inactive: 3.09%. Under `N#CCCN(C(=O)COC(=O)C(O)(c1ccccc1)c1ccccc1)c1ccc(F)cc1` stands inactive: 4.64%. Take `CCOP1(=S)c2c(C)nn(CCC#N)c2N=C(c2ccc(F)cc2)N1C` (stereo not given): the activity score was inactive: -4.14%. For `CN(C(=O)Cc1ccccc1)[C@@H]1CC[C@]2(CCCO2)C[C@H]1N1CCCC1` the value was inactive: -3.6%; for `O=[As](O)(O)c1cccnc1`, inactive: 30.9%; for `COc1cc(C(=O)NCC2(N3CCOCC3)CCCCC2)cc(Cl)c1OC(C)C`, inactive: 8.65%. Under `COc1ccccc1OP(C)(=O)Nc1cccc(Br)c1` (stereo not given) stands inactive: 11.5%; under `CS(=O)(=O)c1ccc(Cl)c(NC(=O)COC(=O)C(O)(c2ccccc2)c2ccccc2)c1`, inactive: -2.82%.

For the compound `O=C(OC1CN2CCC1CC2)c1ccc(Cl)cc1` (stereo not given), the activity score is inactive: 4.5%. For `CCOC(=O)c1ccc(NP(C)(=O)Oc2cc(C)cc(C)c2)cc1` (stereo not given) the value was inactive: -3.53%; for `Cc1cccc(OCC(=O)OC2CN3CCC2CC3)c1` (stereo not given), inactive: -7.51%; for `O=[As](O)(c1cccc(O)c1)c1cccc(O)c1`, inactive: -4.69%. For `Cc1cc(C)cc(OP(C)(=O)Nc2ccc(C)cc2C)c1` (stereo not given) the value was inactive: 3.31%; for `Cc1ccc(C)c(NP(C)(=O)Oc2ccccc2)c1` (stereo not given), inactive: -12.4%; for `CCCOP(=S)(Nc1nc(N)cc(=O)[nH]1)OCCC`, inactive: 6.55%. For `Cc1cc(C)cc(OP(C)(=O)Nc2ccccn2)c1` (stereo not given) the value was inactive: -3.45%; for `CP(=O)(Nc1cccc(Br)c1)Oc1ccccc1` (stereo not given), inactive: -13.7%.

For `Cc1ccc(NCCc2c([N+](=O)[O-])cc([N+](=O)[O-])cc2[N+](=O)[O-])cc1`, the activity score is inactive: -31.6%.

On to `Nc1cccc2c([As](=O)(O)O)cccc12`, for which the activity score was inactive: -6.83%. Under `CCOP(=O)(Nc1cccc2ccccc12)OCC` stands inactive: -2.47%.
